From ChEMBL document CHEMBL1157133, “Design, synthesis, and interaction study of quinazoline-2(1H)-thione derivatives as novel potential Bcl-xL inhibitors” (J Med Chem, 2010) come the findings set out here.

The test system of one test is BEL-7404. The experiment in a line: Cytotoxicity against human Bel7404 cells after 48 hrs by MTT assay. It is filed as functional, cell-based. (Tetrazolium dyes change colour on reduction, which living cells bring about.)
The subject of a further test is OVCAR-3. As to the kind of experiment: Cytotoxicity against human OVCAR-3 cells after 48 hrs by MTT assay. It is filed as functional, cell-based.

Take `O=C(O)COc1cccc(/C=c2\sc3n(c2=O)C(c2cccc4ccccc24)C2=C(N=3)c3ccccc3CC2)c1` (stereo unspecified): the Activity result in the test with BEL-7404 and in the test on OVCAR-3 was “Dose-dependent effect” each time.
Take `O=C(O)COc1cccc(/C=c2\sc3n(c2=O)C(c2cccc(F)c2)C2=C(N=3)/C(=C/c3cccc(F)c3)CCC2)c1` (stereo unspecified): the Activity entry in the test on BEL-7404 and in the test on OVCAR-3 was “Dose-dependent effect” throughout.
In the case of `COc1ccccc1C1C2=C(N=c3s/c(=C\c4ccc(-c5cccc(C(=O)O)c5)cc4)c(=O)n31)c1ccccc1CC2` (stereo unspecified), the Activity result in the test with BEL-7404 and in the test on OVCAR-3 was “Dose-dependent effect” throughout.
On to `COc1ccccc1C1C2=C(N=c3s/c(=C\c4ccc(-c5cccc(C(=O)O)c5)o4)c(=O)n31)c1ccccc1CC2` (stereo unspecified), for which the Activity result in the test on BEL-7404 and in the test on OVCAR-3 was “Dose-dependent effect” each time.
`COc1ccccc1C1C2=C(N=c3s/c(=C\c4ccccc4OCC(=O)O)c(=O)n31)c1ccccc1CC2` (stereo unspecified): the Activity result with BEL-7404 and with OVCAR-3 was “Dose-dependent effect” throughout.
As for `O=C(O)c1cccc(-c2ccc(/C=c3\sc4n(c3=O)C(c3cccc(F)c3)C3=C(N=4)/C(=C/c4cccc(F)c4)CCC3)o2)c1` (stereo unspecified), the Activity result in the test with BEL-7404 and in the test on OVCAR-3 was “Dose-dependent effect” in each case.
In the case of `COc1ccccc1C1C2=C(N=c3s/c(=C\c4ccc(OCC(=O)O)cc4)c(=O)n31)c1ccccc1CC2` (stereo unspecified), the Activity entry in the test on BEL-7404 and in the test on OVCAR-3 was “Dose-dependent effect” in each case.
On to `O=C(O)c1cccc(-c2ccc(/C=c3\sc4n(c3=O)C(c3ccccc3)C3=C(N=4)c4ccccc4CC3)o2)c1` (stereo unspecified), for which the Activity entry with BEL-7404 and with OVCAR-3 was “Dose-dependent effect” in each case.
As for `COc1ccccc1C1C2=C(N=c3s/c(=C\c4ccc(C(=O)O)cc4)c(=O)n31)c1ccccc1CC2` (stereo unspecified), the Activity result in the test on BEL-7404 and with OVCAR-3 was “Dose-dependent effect” in each case.
Consider `CCOC(=O)COc1cccc(/C=c2\sc3n(c2=O)C(c2ccccc2OC)C2=C(N=3)c3ccccc3CC2)c1` (stereo unspecified), for which the Activity result in the test on BEL-7404 and in the test on OVCAR-3 was “Dose-dependent effect” in each case.
For `O=C(O)COc1cccc(/C=c2\sc3n(c2=O)C(c2ccccc2)C2=C(N=3)c3ccccc3CC2)c1` (stereo unspecified), the Activity result in the test with BEL-7404 and in the test on OVCAR-3 was “Dose-dependent effect” in each case.
With `COc1ccccc1C1C=C(c2ccccc2)N=c2s/c(=C\c3cccc(OCC(=O)O)c3)c(=O)n21` (stereo unspecified), the Activity result with BEL-7404 and with OVCAR-3 was “Dose-dependent effect” each time.
`O=C(O)c1cccc(-c2ccc(/C=c3\sc4n(c3=O)C(c3ccccc3F)C3=C(N=4)c4ccccc4CC3)o2)c1` (stereo unspecified): the Activity entry in the test with BEL-7404 and in the test with OVCAR-3 was “Dose-dependent effect” each time.
